Read-outs that look alike come from different tables or passages of the source.
Columns and labels:
WT HIV protease = biological target: T1, WT HIV protease (Human immunodeficiency virus type 1 group M subtype B, UniProt P04585); test: biochemical; format: biochemical, HIV-1
T1 construct: synthetic hexapeptide substrate cleavage by HIV-1 protease

[1] = biological target: T2, recombinant HIV-1 protease (Human immunodeficiency virus type 1 group M subtype B, UniProt P04585); test: biochemical
T2 construct: Enzyme: recombinant HIV-1 protease expressed in E.Coli; purchased Bachem California, Inc. H-9040; host or cells: E. coli

HIV-1 46I50V = test: microbe, parasite or virus in culture; conditions: Human immunodeficiency virus 1, read-out: Cell-based assay (MT-4) EC50/nM 46I50V
[2] = biological target: T3, human leukocyte elastase (huLE) (Homo sapiens, UniProt P08246); format: biochemical
T3 sequence (P08246 30-267): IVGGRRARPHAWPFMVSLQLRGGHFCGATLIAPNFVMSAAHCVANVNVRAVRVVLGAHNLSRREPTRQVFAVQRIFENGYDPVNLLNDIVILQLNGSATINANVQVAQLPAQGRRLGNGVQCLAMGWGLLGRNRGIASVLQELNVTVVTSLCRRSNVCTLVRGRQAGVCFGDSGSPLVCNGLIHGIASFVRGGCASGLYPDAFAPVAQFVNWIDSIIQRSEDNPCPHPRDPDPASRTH

WT HIV-1 = conditions: read-out: Cell-based assay (MT-4) EC50/nM WT

O=C(O)c1cccc(CN2C(=O)N(Cc3ccc(O)cc3)C(Cc3ccccc3)C(O)C(O)C2Cc2ccccc2)c1 (stereo not drawn)
IC50 (WT HIV protease): 15 nM

Nc1n[nH]c2ccc(CN3C(=O)N(Cc4cccc(C(=O)O)c4)C(Cc4ccccc4)C(O)C(O)C3Cc3ccccc3)cc12 (stereo not drawn)
IC50 (WT HIV protease): 3.4 nM | Ki ([1]; Ki (nM)): 0.091 nM

CCOP(=O)(COc1ccc(CC2C(O)C(O)C(Cc3ccccc3)N(Cc3ccccc3)C(=O)N2Cc2ccccc2)cc1)OCC (stereo not drawn)
IC50 (WT HIV protease): 3.9 nM | Ki ([1]; Ki (nM)): 0.656 nM

Nc1n[nH]c2ccc(CN3C(=O)N(CCCCOCP(=O)(O)O)C(Cc4ccccc4)C(O)C(O)C3Cc3ccccc3)cc12 (stereo not drawn) [CH2 OCH2PO3H2]
IC50 (WT HIV protease): 42 nM

CCOP(=O)(COCCCCN1C(=O)N(Cc2ccc3[nH]nc(N)c3c2)C(Cc2ccccc2)C(O)C(O)C1Cc1ccccc1)OCC (stereo not drawn) [CH2OCH2PO3Et2]
EC50 (HIV-1 46I50V): 789 nM | IC50 (WT HIV protease): 13 nM | Ki ([1]; Ki (nM)): 2.8 nM

CCCCN1C(=O)N(Cc2ccc3[nH]nc(N)c3c2)C(Cc2ccccc2)C(O)C(O)C1Cc1ccccc1 (stereo not drawn) [DMP-851]
IC50 (WT HIV protease; read-out: WT IC50/nM): 3.8 nM

COC(=O)CCC(=O)N[C@@H](C)C(=O)N[C@@H](C)C(=O)N1CCC[C@H]1C(=O)N[C@@H](C)C(=O)CCl [MeOSuC-Ala-Ala-Pro-Ala-CMK]
IC50 [2]: 60 µM

CCOP(=O)(COCCCN1C(=O)N(Cc2ccc3[nH]nc(N)c3c2)C(Cc2ccccc2)C(O)C(O)C1Cc1ccccc1)OCC (stereo not drawn) [OCH2PO3Et2]
IC50 (WT HIV protease): 23 nM | Ki ([1]; Ki (nM)): 1.23 nM

CCOP(=O)(COc1ccc(CC2C(O)C(O)C(Cc3ccc(OC)cc3)N(Cc3cccc(N)c3)C(=O)N2Cc2cccc(N)c2)cc1)OCC (stereo not drawn) [OCH3, Ph-mNH2, OCH2PO3Et2]
IC50 (WT HIV protease): 3.6 nM | Ki ([1]; Ki (nM)): < 0.01 nM

CCOP(=O)(COc1ccc(CC2C(O)C(O)C(Cc3ccc(OC)cc3)N(Cc3cccnc3)C(=O)N2Cc2cccnc2)cc1)OCC (stereo not drawn) [OCH3, m-pyridine, OCH2PO3Et2]
EC50 (WT HIV-1): 115 nM

CCOP(=O)(COc1ccc(CC2C(O)C(O)C(Cc3ccc(O)cc3)N(Cc3ccc(O)cc3)C(=O)N2Cc2ccc(O)cc2)cc1)OCC (stereo not drawn) [OH, Ph-pOH, OCH2PO3Et2]
IC50 (WT HIV protease): 2.6 nM | Ki ([1]; Ki (nM)): < 0.01 nM

COc1ccc(S(=O)(=O)N(CC(C)C)CC(O)C(Cc2ccc(OCP(=O)(OC)OC)cc2)NC(=O)OC2COC3OCCC23)cc1 (stereo not drawn) [drawing 608 R1=OMe R2=OMe]
Ki ([1]; Ki): 0.01 to 0.1 nM

COc1ccc(S(=O)(=O)N(CC(C)C)CC(O)C(Cc2ccc(OCP(=O)(OC(C)C)OC(C)C)cc2)NC(=O)OC2COC3OCCC23)cc1 (stereo not drawn) [drawing 608 R1=OiPr R2=OiPr]
Ki ([1]; Ki): 0.01 to 0.1 nM

CCOP(=O)(COc1ccc(CC(NC(=O)OC2COC3OCCC23)C(O)CN(CC(C)C)S(=O)(=O)c2ccc(O)cc2)cc1)OCC (stereo not drawn) [drawing 609 R1=Et R2=Et]
Ki ([1]; Ki): < 0.01 nM

CC(C)CN(CC(O)C(Cc1ccc(OCP(=O)(O)O)cc1)NC(=O)OC1COC2OCCC12)S(=O)(=O)c1ccc(O)cc1 (stereo not drawn) [drawing 609 R1=OH R2=OH]
Ki ([1]; Ki): < 0.01 nM

CCCCOC(=O)C(CC)NP(=O)(COc1ccc(CC(NC(=O)OC2COC3OCCC23)C(O)CN(CC(C)C)S(=O)(=O)c2ccc(OC)cc2)cc1)NC(CC)C(=O)OCCCC (stereo not drawn) [drawing 612 R1=Aba-Bu R2=Aba-Bu]
Ki ([1]; Ki): < 0.01 nM

CCCCOC(=O)C(C)NP(=O)(COc1ccc(CC(NC(=O)OC2COC3OCCC23)C(O)CN(CC(C)C)S(=O)(=O)c2ccc(OC)cc2)cc1)NC(C)C(=O)OCCCC (stereo not drawn) [drawing 612 R1=Ala-Bu R2=Ala-Bu]
Ki ([1]; Ki): 0.01 to 0.1 nM

CCOC(=O)C(C)NP(=O)(COc1ccc(CC(NC(=O)OC2COC3OCCC23)C(O)CN(CC(C)C)S(=O)(=O)c2ccc(OC)cc2)cc1)NC(C)C(=O)OCC (stereo not drawn) [drawing 612 R1=Ala-Et R2=Ala-Et]
Ki ([1]; Ki): 0.01 to 0.1 nM

CCCCOC(=O)CNP(=O)(COc1ccc(CC(NC(=O)OC2COC3OCCC23)C(O)CN(CC(C)C)S(=O)(=O)c2ccc(OC)cc2)cc1)NCC(=O)OCCCC (stereo not drawn) [drawing 612 R1=Gly-Bu R2=Gly-Bu]
Ki ([1]; Ki): < 0.01 nM

CCOC(=O)CNP(=O)(COc1ccc(CC(NC(=O)OC2COC3OCCC23)C(O)CN(CC(C)C)S(=O)(=O)c2ccc(OC)cc2)cc1)NCC(=O)OCC (stereo not drawn) [drawing 612 R1=Gly-Et R2=Gly-Et]
Ki ([1]; Ki): 0.01 to 0.1 nM

CCCCOC(=O)C(CC(C)C)NP(=O)(COc1ccc(CC(NC(=O)OC2COC3OCCC23)C(O)CN(CC(C)C)S(=O)(=O)c2ccc(OC)cc2)cc1)NC(CC(C)C)C(=O)OCCCC (stereo not drawn) [drawing 612 R1=Leu-Bu R2=Leu-Bu]
Ki ([1]; Ki): 0.01 to 0.1 nM

CCOC(=O)C(CC(C)C)NP(=O)(COc1ccc(CC(NC(=O)OC2COC3OCCC23)C(O)CN(CC(C)C)S(=O)(=O)c2ccc(OC)cc2)cc1)NC(CC(C)C)C(=O)OCC (stereo not drawn) [drawing 612 R1=Leu-Et R2=Leu-Et]
Ki ([1]; Ki): 0.01 to 0.1 nM

CCNP(=O)(COc1ccc(CC(NC(=O)OC2COC3OCCC23)C(O)CN(CC(C)C)S(=O)(=O)c2ccc(OC)cc2)cc1)NCC (stereo not drawn) [drawing 612 R1=NHEt R2=NHEt]
Ki ([1]; Ki): < 0.01 nM

CCOC(=O)C(NP(=O)(COc1ccc(CC(NC(=O)OC2COC3OCCC23)C(O)CN(CC(C)C)S(=O)(=O)c2ccc(OC)cc2)cc1)NC(C(=O)OCC)C(C)C)C(C)C (stereo not drawn) [drawing 612 R1=Val-Et R2=Val-Et]
Ki ([1]; Ki): 0.1 to 1 nM

CCOC(=O)C(C)OP(=O)(COc1ccc(CC(NC(=O)OC2COC3OCCC23)C(O)CN(CC(C)C)S(=O)(=O)c2ccc(OC)cc2)cc1)OC(C)C(=O)OCC (stereo not drawn) [drawing 613 R1=Lac-Et R2=Lac-Et]
Ki ([1]; Ki): 0.01 to 0.1 nM

COc1ccc(S(=O)(=O)N(CC(C)C)CC(O)C(Cc2ccc(OCP(=O)(OC(C)C(=O)OC(C)C)OC(C)C(=O)OC(C)C)cc2)NC(=O)OC2COC3OCCC23)cc1 (stereo not drawn) [drawing 613 R1=Lac-iPr R2=Lac-iPr]
Ki ([1]; Ki): 0.01 to 0.1 nM

COc1ccc(S(=O)(=O)N(CC(C)C)CC(O)C(Cc2ccc(OCP(=O)(O)NC(C)C(=O)O)cc2)NC(=O)OC2COC3OCCC23)cc1 (stereo not drawn) [drawing 614 R1=OH R2=Ala-OH]
Ki ([1]; Ki): < 0.01 nM

COc1ccc(S(=O)(=O)N(CC(C)C)CC(O)C(Cc2ccc(OCP(=O)(O)OC(C)C(=O)O)cc2)NC(=O)OC2COC3OCCC23)cc1 [drawing 615 R1=OH R2=(R)Lac-OH]
Ki ([1]; Ki): 0.01 to 0.1 nM

COc1ccc(S(=O)(=O)N(CC(C)C)CC(O)C(Cc2ccc(OCP(=O)(O)OC(C)C(=O)O)cc2)NC(=O)OC2COC3OCCC23)cc1 (stereo not drawn) [drawing 615 R1=OH R2=Lac-OH]
Ki ([1]; Ki): < 0.01 nM

CCOP(=O)(CCNCc1ccc(CC(NC(=O)OC2COC3OCCC23)C(O)CN(CC(C)C)S(=O)(=O)c2ccc(OC)cc2)cc1)OCC (stereo not drawn) [drawing 619 R1=Et R2=Et]
Ki [1]: + +

COc1ccc(S(=O)(=O)N(CC(C)C)CC(O)C(Cc2ccc(CNCCP(=O)(O)O)cc2)NC(=O)OC2COC3OCCC23)cc1 (stereo not drawn) [drawing 619 R1=H R2=H]
Ki [1]: + +

COc1ccc(S(=O)(=O)N(CC(C)C)CC(O)C(Cc2ccc(CNCCP(=O)(O)OC(C)C(=O)O)cc2)NC(=O)OC2COC3OCCC23)cc1 (stereo not drawn) [drawing 619 R1=H R2=Lac]
Ki [1]: + +

COc1ccc(S(=O)(=O)N(CC(C)C)CC(O)C(Cc2ccc(CN(C)CCP(=O)(O)O)cc2)NC(=O)OC2COC3OCCC23)cc1 (stereo not drawn) [drawing 620 R1=H R2=H]
Ki [1]: + +

CCOP(=O)(CON=Cc1ccc(CC(NC(=O)OC2COC3OCCC23)C(O)CN(CC(C)C)S(=O)(=O)c2ccc(OC)cc2)cc1)OCC (stereo not drawn) [drawing 621 R1=Et R2=Et]
Ki [1]: + +

CCOP(=O)(CCN1CCN(CC(NC(=O)OC2COC3OCCC23)C(O)CN(CC(C)C)S(=O)(=O)c2ccc(OC)cc2)CC1)OCC (stereo not drawn) [drawing 623]
Ki ([1]; Ki): > 1 nM

COc1ccc(S(=O)(=O)N(CC(C)C)CC(O)C(CC2=CCN(CCP(=O)(OCc3ccccc3)OCc3ccccc3)CC2)NC(=O)OC2COC3OCCC23)cc1 (stereo not drawn) [drawing 630]
Ki [1]: + +

COc1ccc(S(=O)(=O)N(CC(C)C)CC(O)C(Cc2ccc(NCP(=O)(O)O)cc2)NC(=O)OC2COC3OCCC23)cc1 (stereo not drawn) [drawing 657]
Ki [1]: + + +

CC(C)CN(CC(O)C(Cc1ccc(OCP(=O)(O)O)cc1)NC(=O)OC1COC2OCCC12)S(=O)(=O)c1ccc(O)cc1 (stereo not drawn) [drawing 723]
Ki (pM) [1]: + + +

CCOP(=O)(COc1ccc(CC(NC(=O)OC2COC3OCCC23)C(O)CN(CC(C)C)S(=O)(=O)c2ccc(O)cc2)cc1)OCC (stereo not drawn) [drawing 724]
Ki (pM) [1]: + + +

CCOP(=O)(CCCNC(=O)c1cccc(CN2C(=O)N(Cc3ccc4[nH]nc(N)c4c3)C(Cc3ccccc3)C(O)C(O)C2Cc2ccccc2)c1)OCC (stereo not drawn) [drawing 809]
IC50 (WT HIV protease): 1.6 nM | Ki ([1]; Ki (nM)): 0.157 nM

CCOP(=O)(CCCNC(=O)c1cccc(CN2C(=O)N(Cc3ccc4[nH]nc(N)c4c3)C(Cc3ccccc3)C(O)C(O)C2Cc2ccccc2)c1)OCC (stereo not drawn) [drawing 820]
IC50 (WT HIV protease; read-out: WT IC50/nM): 1.6 nM | Ki [1]: 0.157 nM

Nc1n[nH]c2ccc(CN3C(=O)N(Cc4cccc(OCc5ccccc5)c4)C(Cc4ccccc4)C(O)C(O)C3Cc3ccccc3)cc12 (stereo not drawn) [m-OBn]
IC50 (WT HIV protease; read-out: WT IC50/nM): 6.9 nM | Ki ([1]; read-out: Ki): 0.253 nM

O=C1N(Cc2ccccc2)[C@H](Cc2ccccc2)[C@H](O)[C@@H](O)[C@@H](Cc2ccccc2)N1Cc1ccc2[nH]ncc2c1 [reference compound]
IC50 (WT HIV protease): 5.8 nM | Ki ([1]; Ki (nM)): 0.37 nM

Reference: patent publication US20040121316A1 (priority 2002, published 2004)
